According to US20200129545A1, “METHODS OF TREATMENT WITH MIXED METAL COMPOUND” (published 2020):

Key:
[1] = tested on: adenine-induced CKD rat model; test: Adenine-induced CKD rat model: tissue magnesium and magnesium:phosphate ratio; conditions: for magnesium to phosphate accumulation, aorta: p<0.05
[2] = tested on: adenine-induced CKD rat model; test: Adenine-induced CKD rat model: serum creatinine, phosphate, calcium, magnesium, PTH, FGF23, vitamin D metabolites; conditions: for serum Mg: p<0.0001, 2-way ANOVA; for serum PO4 (lower levels): p<0.001; for FGF23 levels: fermagate vs control, both studies; for serum calcium: fermagate-treated vs control, both experiments
[3] = tested on: adenine-induced CKD rat model; test: Adenine-induced CKD rat model: vascular calcification in arterial tissues; conditions: for degree of vascular calcification in arterial tissues: p<0.001; for animals that had VC (per animal basis): p<0.05
[4] = 0.75% study, vs untreated control, p<0.01
[5] = 1%+0.5% diet study, vs untreated control, p<0.001

**Q.** Which “magnesium to phosphate accumulation, coronary CMR arteries” value [1, 4] does the source give for iron magnesium hydroxy carbonate here?
**A.** significantly more

**Q.** What about the “magnesium to phosphate accumulation, distal vascular arteries” value [1, 4] of the same substance?
**A.** significantly more

**Q.** What about the “magnesium to phosphate accumulation, aorta” value ([1]; 0.75% study, vs untreated control) of the same substance?
**A.** significantly more

**Q.** What about the “magnesium to phosphate accumulation, coronary CMR arteries” value [1, 5] of the same substance?
**A.** significantly more

**Q.** And the “magnesium to phosphate accumulation, distal vascular” value [1, 5]?
**A.** significantly more

**Q.** And the “magnesium to phosphate accumulation, carotid arteries” value ([1]; 1%+0.5% diet study, vs untreated control, p<0.01)?
**A.** significantly more

**Q.** What about the “magnesium to phosphate accumulation, aorta” value ([1]; 1%+0.5% diet study, vs untreated control) of the same substance?
**A.** significantly more

**Q.** What about the “Mg levels in the vasculature tissue” value ([1]; both studies) of the same substance?
**A.** did not significantly alter

**Q.** What about the “magnesium to phosphate ratios in non-vascular tissues (bone, muscle, fat, liver, heart, lung, spleen)” value ([1]; both studies, fermagate vs untreated CKD animals) of the same substance?
**A.** Only vascular tissues demonstrated a difference

**Q.** What about the bone magnesium content ([1]; untreated CKD animals vs those receiving fermagate) of the same substance?
**A.** did not show significant alternation

**Q.** What about the “serum Mg” value ([2]; 0.5-1% P diet (high 1% P day, low 0.5% P overnight)) of the same substance?
**A.** 163 % control

**Q.** What about the “serum PO4 (lower levels)” value ([2]; 0.5-1% P diet) of the same substance?
**A.** 64 % control

**Q.** And the “serum Mg” value ([2]; 0.75% P diet, fermagate vs untreated control)?
**A.** 203 % control

**Q.** And the “serum PO4 (lower levels)” value ([2]; 0.75% P diet)?
**A.** 67 % control

**Q.** What about the hyperphosphatemia ([2]; after start of fermagate treatment and higher phosphate diet) of the same substance?
**A.** hyperphosphatemia was present only in control

**Q.** And the FGF23 levels [2]?
**A.** not significantly altered

**Q.** What about the FGF23 levels ([2]; listed as Fermagate) of the same substance?
**A.** did not significantly alter

**Q.** And the serum calcium [2]?
**A.** not significantly different

**Q.** What about the serum calcium ([2]; listed as Fermagate) of the same substance?
**A.** did not significantly alter

**Q.** And the “serum vitamin D profiles / metabolome” value ([2]; sacrifice serum, only 25-OH-D3 lactone differed (p=0.02), listed as Fermagate)?
**A.** did not significantly alter

**Q.** What about the “degree of vascular calcification in arterial tissues” value ([3]; 0.5-1% P diet, CON 65%) of the same substance?
**A.** 13%

**Q.** And the “animals that had VC (per animal basis)” value ([3]; 0.5-1% P diet, CON 70%)?
**A.** 13%

**Q.** And the “degree of vascular calcification in arterial tissues” value ([3]; 0.75% P diet, CON 79%)?
**A.** 35%

**Q.** And the “animals that had VC (per animal basis)” value ([3]; 0.75% P diet, CON 100%)?
**A.** 33%
